{
  "sequences": {"note": "By UniProt entry, the sequences of proteins in these tests, tags left out. Where a name states a change or a piece, a line headed by the entry shows the natural chain unless it says otherwise.", "UniProt P33534": "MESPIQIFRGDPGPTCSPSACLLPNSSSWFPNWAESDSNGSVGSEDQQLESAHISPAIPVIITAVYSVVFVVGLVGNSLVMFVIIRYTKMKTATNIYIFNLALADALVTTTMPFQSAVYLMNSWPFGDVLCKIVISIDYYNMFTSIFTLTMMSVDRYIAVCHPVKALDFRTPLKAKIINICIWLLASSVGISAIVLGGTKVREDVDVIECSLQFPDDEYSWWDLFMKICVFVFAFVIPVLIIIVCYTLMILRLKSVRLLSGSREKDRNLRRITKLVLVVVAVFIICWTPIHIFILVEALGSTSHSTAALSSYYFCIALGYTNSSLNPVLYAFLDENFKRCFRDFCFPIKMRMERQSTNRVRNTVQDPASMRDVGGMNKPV"},
  "source": "paper PMC8406418",
  "about": "“Plant-Derived Cyclotides Modulate κ-Opioid Receptor Signaling” (Journal of Natural Products, 2021)",
  "key": {"[1]": {"biological_target": "T1, mouse KOR (Mus musculus, UniProt P33534)"}, "[2]": {"biological_target": "T1, mouse KOR", "remark": "listed apart in the source"}},
  "note": "Where two headings read alike, the source gives them in different places.",
  "data": [
    {"smiles": "CN(C(=O)Cc1ccc(Cl)c(Cl)c1)C1CCCCC1N1CCCC1", "note": "(stereo not shown)", "values": [
      {"measurement": "arrestin recruitment Emax ± SD", "setting": "[1]; U50,488 + 0 μM T20K", "result": 100, "unit": "%"},
      {"measurement": "arrestin recruitment Emax ± SD", "setting": "[1]; U50,488 + 10 μM T20K", "result": "77.3 ± 9.4", "unit": "%"},
      {"measurement": "cAMP inhibition Emax ± SD", "setting": "[2]; U50,488 + 0 μM T20K", "result": 100, "unit": "%"},
      {"measurement": "cAMP inhibition Emax ± SD", "setting": "[2]; U50,488 + 0.03 μM T20K", "result": "91.1 ± 6.5", "unit": "%"},
      {"measurement": "cAMP inhibition Emax ± SD", "setting": "[2]; U50,488 + 0.1 μM T20K", "result": "90.0 ± 8.4", "unit": "%"},
      {"measurement": "cAMP inhibition Emax ± SD", "setting": "[2]; U50,488 + 0.3 μM T20K", "result": "88.2 ± 18.7", "unit": "%"},
      {"measurement": "cAMP inhibition Emax ± SD", "setting": "[2]; U50,488 + 1 μM T20K", "result": "92.0 ± 12.5", "unit": "%"}
    ]}
  ]
}
